From paper PMC10728164

Molecular target: cardiac troponin I (human (endogenous in heart tissue)) (UniProt P19429)
Experiment: affinity purification with mass spectrometry; co-purification of the cTn subunits from human heart extract on the cTnI-binding peptide nanoparticles (NP-Pep); 25 mM Tris pH 7.5, 700 mM LiCl, 4 °C; native elution; subunits in the eluate analysed (Supplementary Fig. 2, 3a) and by top-down RPLC-MS/MS

For “troponin C (from UniProt P63316 1-161) (natural protein)”, which stoichiometry N is on record?
The stoichiometry N was 1.
